Here are results for one compound from patent publication US20260256729A1, “CARBAMOYL PHEN[…] AS TAAR1 AGONISTS” (AXSOME THERAPEUTICS, INC., priority 2022, published 2026).

The chains behind the UniProt entries cited, without tags or fusion partners.
UniProt P23975, whole entry: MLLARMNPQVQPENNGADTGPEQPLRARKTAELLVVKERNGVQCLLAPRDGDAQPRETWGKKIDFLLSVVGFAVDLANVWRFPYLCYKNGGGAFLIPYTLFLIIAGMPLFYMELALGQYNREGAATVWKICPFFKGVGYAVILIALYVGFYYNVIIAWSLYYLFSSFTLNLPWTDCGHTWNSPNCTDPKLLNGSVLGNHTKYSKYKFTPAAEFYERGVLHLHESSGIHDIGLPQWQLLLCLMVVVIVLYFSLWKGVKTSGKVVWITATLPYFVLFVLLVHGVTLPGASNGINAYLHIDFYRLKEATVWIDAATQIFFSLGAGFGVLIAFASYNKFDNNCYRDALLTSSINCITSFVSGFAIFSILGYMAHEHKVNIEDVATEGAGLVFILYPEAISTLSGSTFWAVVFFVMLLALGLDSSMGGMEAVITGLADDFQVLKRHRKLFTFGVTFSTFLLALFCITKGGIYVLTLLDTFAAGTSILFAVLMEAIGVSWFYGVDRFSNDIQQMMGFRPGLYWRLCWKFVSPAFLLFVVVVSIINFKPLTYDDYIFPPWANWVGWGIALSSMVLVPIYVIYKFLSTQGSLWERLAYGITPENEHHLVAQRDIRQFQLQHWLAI

The term IC50 denotes the midpoint of a concentration-inhibition curve.

The target of the experiment is human norepinephrine transporter (hNET) (Homo sapiens, UniProt P23975). Description: hNET inhibition, in vitro binding and functional studies.

In turn, `CC(NC(C)(C)C)C(=O)c1cccc(Cl)c1` (stereo not shown) [Bupropion] yielded an IC50 of 2790 nM.
